Test: solubility in water
Type: physicochemical

For “(S)-4-[(3-fluorophenoxy)phenylmethyl]piperidine dibenzoyl-L-tartaric acid salt”, the solubility in water was “insoluble in water”.
